Results taken from publication PMC6030096, “Synergy of Physico-chemical and Biological Experiments for Developing a Cyclooxygenase-2 Inhibitor” (Scientific Reports, 2018).

Amino acid sequences for entries named in this document (tags omitted). Residues count along the entry.
UniProt P35354, 18-604: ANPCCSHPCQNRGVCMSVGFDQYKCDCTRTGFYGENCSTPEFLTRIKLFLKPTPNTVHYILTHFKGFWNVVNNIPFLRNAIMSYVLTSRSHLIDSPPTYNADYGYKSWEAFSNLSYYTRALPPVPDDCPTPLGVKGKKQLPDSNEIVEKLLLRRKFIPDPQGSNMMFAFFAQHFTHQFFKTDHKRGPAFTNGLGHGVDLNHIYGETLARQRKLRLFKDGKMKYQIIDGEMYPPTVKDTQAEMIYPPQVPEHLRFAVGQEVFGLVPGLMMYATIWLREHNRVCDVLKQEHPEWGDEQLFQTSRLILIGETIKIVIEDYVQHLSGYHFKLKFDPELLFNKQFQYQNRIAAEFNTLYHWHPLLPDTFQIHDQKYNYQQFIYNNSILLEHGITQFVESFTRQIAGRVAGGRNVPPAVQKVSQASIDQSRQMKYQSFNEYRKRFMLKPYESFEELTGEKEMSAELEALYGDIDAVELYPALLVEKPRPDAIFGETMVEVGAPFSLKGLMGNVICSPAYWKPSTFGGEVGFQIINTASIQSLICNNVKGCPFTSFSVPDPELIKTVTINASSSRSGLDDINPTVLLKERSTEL

Biological target: COX-2 (Homo sapiens, UniProt P35354)
Test: UV-vis titration with COX-2 (Benesi-Hildebrand)
Type: binding
Design: purchased Cayman Chemical Co. 560131

For `O=C1NC(=O)C(=Cc2cn(C[C@H](O)Cn3c4ccccc4c(=O)c4ccccc43)c3ccccc23)C(=O)N1` [(S)-3a], the Kd was 1870 nM.
